Experimental data reported in PubChem BioAssay AID504845 (National Center for Advancing Translational Sciences (NCATS), 2011).
The entries are a selection whose mix differs from that of the whole data set. Inconclusive results are not listed. Calls of active or inactive are those of the source. Calls come from the whole dose curve; as a rule, active = well fitted inhibition curve with a large enough effect; inconclusive = small, poorly fitted or top-dose-only effect; inactive = no such curve, though single readings can be large or run the other way.

By UniProt entry, the sequences of proteins in these tests, tags left out.
UniProt P49798, whole entry: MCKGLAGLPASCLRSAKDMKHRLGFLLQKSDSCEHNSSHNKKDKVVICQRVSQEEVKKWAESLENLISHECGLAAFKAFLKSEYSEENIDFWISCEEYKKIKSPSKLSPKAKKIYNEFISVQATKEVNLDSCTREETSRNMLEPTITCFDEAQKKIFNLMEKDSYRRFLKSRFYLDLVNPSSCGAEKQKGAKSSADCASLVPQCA

The compounds below were run against Regulator of G-protein signaling 4 (Homo sapiens) (UniProt P49798) (assay: Inhibitors of Regulator of G Protein Signaling (RGS) 4: qHTS). Settings: Transcreener GDP fluorescence polarization, RGS4-accelerated GTP hydrolysis; series mostly up to 114 µM; activity change, negative = inhibition: at the top concentration.
Description: G-protein-coupled receptors (GPCRs) are well-established targets for drug discovery and development. Members of the "regulator of G-protein signaling" (RGS)-protein superfamily have recently emerged as critical modulators of specific GPCR signaling pathways. […] Combining specific RGS domain inhibitors with existing GPCR agonists should potentiate cellular responses and could also increase the specificity of action of existing therapeutics. Small molecule modulators of RGS domain activity should also have clinical utility in inhibiting or potentiating the actions of endogenous GPCR agonists. In particular, the diversity of RGS proteins with highly localized and dynamically regulated distributions in the human brain makes this family of proteins attractive targets for pharmacotherapy of central nervous system (CNS) disorders such as Parkinson's disease, schizophrenia, and anxiety.
This assay was used to screen the NIH Molecular Libraries Small Molecule Repository (MLSMR) in order to identify a small molecule that inhibits RGS4.
NIH Chemical Genomics Center [NCGC]
NIH Molecular Libraries Probe Centers Network [MLPCN]
Assay Submitter (PI): David Siderovski, University of North Carolina Chapel Hill (School of Medicine)
Two microliters of 500nM (2x working concentration) is dispensed into black medium-binding solid-bottom Kalypsys plates. Then with the Kalypsys pintool 23nl of control and compounds are transferred; the control compound is […] CCG-4986 (working concentration). After a 10 minute incubation at room temperature 2ul of antibody is added with the Kalypsys dispenser; (-)RGS4/Transcreener GDP solution in columns 3 and 4 which consisted of 10nM (2x working concentration) Alexa633, 20uM GTP, and 20 ug/ml GDP antibody and (+)RGS4/Transcreener GDP solution in columns 1,2, and 5 to 48 which consists of 900nM RGS4 (2x working concentration), 10nM Alexa633, 20 ug/ml GDP antibody. The plate is centrifuged at 1000 RPM for 15 seconds to remove any possible bubbles and then incubated for 5 minutes at ambient room temperature. An initial fluorescent polarization read (620 nm/688 nm) is performed on the Envision before the plate is incubated for 90 minutes at 30 deg C at a relative humidity of 80%. The plate is once more centrifuged at 1000 RPM for 15 seconds and another Envision fluorescent polarization (620 nm/688 nm) read is carried out.
% is set by controls: 0 for no effect and ±100 for the full control effect.
Note: nearly all actives have a fitted effect of over 75% in size.

SMILES | activity change, negative = inhibition
COc1ccc(OP(C)(=O)Nc2ccc(Br)cc2)cc1 (configuration not stated) | inactive: -12.5%
CCN(CC)CC(O)COC(=O)C(O)(c1ccccc1)C1CCCCC1 (configuration not stated) | inactive: -3.39%
CCc1ccc(OP(C)(=O)Nc2cccnc2)cc1 (configuration not stated) | inactive: -24.9%
CP(=O)(Oc1ccccc1)N1CCOC1=O (configuration not stated) | inactive: -12.3%
O=C(OCCCN1CCCC1)C(O)(c1ccccc1)C1CCCCC1 (configuration not stated) | inactive: 8.15%
COc1ccccc1OP(C)(=O)Nc1c(C)n(C)n(-c2ccccc2)c1=O (configuration not stated) | inactive: 18.6%
Nc1ccc2c(ccc3cccnc32)n1.O=[N+]([O-])c1cc([N+](=O)[O-])c(O)c([N+](=O)[O-])c1 | inactive: 4.65%
CP(=O)(OC12CC3CC(CC(C3)C1)C2)OC12CC3CC(CC(C3)C1)C2 | inactive: 2.65%
CCOC(=O)c1ccc(NP(C)(=O)Oc2ccc(Cl)cc2)cc1 (configuration not stated) | inactive: -19.3%
CP(=O)(OCCOc1ccccc1)OCCOc1ccccc1 | inactive: 2.78%
CP(=O)(Nc1ccc(Cl)cc1Cl)Oc1ccccc1 (configuration not stated) | inactive: 39.1%
CCCCCCCCCCCCCCCC1C[N+](C)(C)CCOP(C)(=O)O1 (configuration not stated) | inactive: -50.9%
Cc1cc(C)cc(OP(C)(=O)Nc2cccc(C(F)(F)F)c2)c1 (configuration not stated) | inactive: -13.7%
COc1ccc(OP(C)(=O)Nc2ccccc2Br)cc1 (configuration not stated) | inactive: -15.9%
CN(C(=O)Cc1ccc(Cl)c(Cl)c1)[C@H]1CCCC[C@@H]1N1CCCC1 | inactive
COc1ccccc1OP(C)(=O)Nc1ccc(C)c(C)c1 (configuration not stated) | inactive: -1.68%
O=[N+]([O-])c1cc([N+](=O)[O-])c(Nc2ccccn2)c([N+](=O)[O-])c1 | inactive: -44.4%
Cc1c(NP(C)(=O)Oc2ccc(C(C)C)cc2)c(=O)n(-c2ccccc2)n1C (configuration not stated) | inactive: -11.8%
CCc1ccc(OP(C)(=O)O)cc1 | inactive: 22.6%
COc1ccccc1OP(C)(=O)Nc1ccc(C)cc1C (configuration not stated) | inactive: 14.4%
CP(=O)(Nc1ccccn1)Oc1ccccc1 (configuration not stated) | inactive: 24.8%

SMILES | activity change, negative = inhibition
COc1ccccc1OP(C)(=O)Nc1ccc(Br)cc1 (configuration not stated) | inactive: 5.45%
CN(C)CCOC(=O)C(O)(c1ccccc1)C1CCCC1 (configuration not stated) | inactive: 11.9%
COc1ccc(OP(C)(=O)Nc2ccccn2)cc1 (configuration not stated) | inactive: -4.46%
O=C(OCCN1CCN(CCOCc2ccccc2)CC1)C(O)(c1ccccc1)c1ccccc1 | inactive: 0%
CC(C)c1ccc(OP(C)(=O)Nc2ccc(SC(F)(F)F)cc2)cc1 (configuration not stated) | inactive: 16.9%
CP(=O)(Nc1ccccc1F)Oc1ccccc1 (configuration not stated) | inactive: -32%
CCN(CC)CCCOC(=O)C(O)(c1ccccc1)C1CCCCC1 (configuration not stated) | inactive: -8.69%
Cc1c([N+](=O)[O-])cc([N+](=O)[O-])c(Br)c1[N+](=O)[O-] | inactive: 4.67%
CCCCCOc1ccc(NP(C)(=O)Oc2ccc(Cl)cc2Cl)cc1 (configuration not stated) | inactive: 2.82%
CP(=O)(Nc1ccccc1)Oc1ccc(F)cc1 (configuration not stated) | inactive: 7.83%
COc1ccc(OP(C)(=O)Nc2ccc(SC(F)(F)F)cc2)cc1 (configuration not stated) | inactive: -4.51%
CCOC(=O)c1ccc(NP(C)(=O)Oc2ccc(F)cc2)cc1 (configuration not stated) | inactive: -12%
Cc1cc(-c2cccc3ccccc23)c(C)cn1.O=[N+]([O-])c1cc([N+](=O)[O-])c(O)c([N+](=O)[O-])c1 | inactive: -9.51%
O=[N+]([O-])c1ccc(OP2(=O)COCCO2)cc1 (configuration not stated) | inactive: 28.1%
Cc1c(C(c2ccc3c(c2)OCO3)c2c(C)n(C)n(-c3ccccc3)c2=O)c(=O)n(-c2ccccc2)n1C.O=[N+]([O-])c1cc([N+](=O)[O-])c(O)c([N+](=O)[O-])c1 | inactive: -6.53%
COc1ccc(OP(C)(=O)Nc2cccc(Br)c2)cc1 (configuration not stated) | inactive: 12.6%
CN(C)CCOC(=O)C(O)(c1ccccc1)C1CCCCC1 (configuration not stated) | inactive: -14.1%
CP(=O)(Nc1ccc2c(c1)OCCO2)Oc1ccccc1 (configuration not stated) | inactive: 24.8%
Cc1ccccc1NP(C)(=O)Nc1ccccc1C | inactive: -11.2%
CP(=O)(Nc1ccc(SC(F)(F)F)cc1)Oc1ccc(F)cc1 (configuration not stated) | inactive: 6.17%
CCOP(C)(=S)SCC(=O)NC(C)(CC)C(=O)O (configuration not stated) | inactive: 10.4%
